Results from ChEMBL document CHEMBL3421542, “Pure Diastereomers of a Tranylcypromine-Based LSD1 Inhibitor: Enzyme Selectivity and In-Cell Studies” (ACS Med Chem Lett, 2015).

The chains behind the UniProt entries cited, without tags or fusion partners.
UniProt P21397, whole entry: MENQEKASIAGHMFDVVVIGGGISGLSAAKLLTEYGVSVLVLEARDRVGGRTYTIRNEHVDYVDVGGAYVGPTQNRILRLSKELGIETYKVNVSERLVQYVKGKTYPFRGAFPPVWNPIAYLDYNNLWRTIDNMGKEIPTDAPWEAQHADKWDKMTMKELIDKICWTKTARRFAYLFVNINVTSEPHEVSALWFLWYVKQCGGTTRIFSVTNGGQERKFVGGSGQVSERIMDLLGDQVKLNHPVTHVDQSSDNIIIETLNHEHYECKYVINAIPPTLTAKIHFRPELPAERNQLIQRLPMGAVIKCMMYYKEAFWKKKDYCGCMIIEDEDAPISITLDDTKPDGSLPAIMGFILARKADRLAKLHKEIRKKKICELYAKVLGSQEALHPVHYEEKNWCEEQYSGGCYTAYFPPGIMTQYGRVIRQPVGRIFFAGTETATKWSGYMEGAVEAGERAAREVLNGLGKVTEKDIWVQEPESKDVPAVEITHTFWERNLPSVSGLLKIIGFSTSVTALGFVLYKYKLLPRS

Target: Amine oxidase [flavin-containing] A (Homo sapiens, UniProt P21397)
Assay: Inhibition of human recombinant MAOA expressed in Pichia pastoris incubated for 15 mins prior to substrate addition measured after 30 mins by luminescence assay

Row | Structure (SMILES) | IC50
1 | N[C@H]1C[C@@H]1c1ccc(NC(=O)[C@H](Cc2ccccc2)NC(=O)OCc2ccccc2)cc1 | 110 nM
2 | N[C@@H]1C[C@H]1c1ccc(NC(=O)[C@H](Cc2ccccc2)NC(=O)OCc2ccccc2)cc1 | 140 nM
3 | N[C@H]1C[C@@H]1c1ccc(NC(=O)[C@@H](Cc2ccccc2)NC(=O)OCc2ccccc2)cc1 | 200 nM
4 | N[C@@H]1C[C@H]1c1ccc(NC(=O)[C@@H](Cc2ccccc2)NC(=O)OCc2ccccc2)cc1 | 220 nM
5 | Cl.NC1CC1c1ccc(NC(=O)C(Cc2ccccc2)NC(=O)OCc2ccccc2)cc1 (mixture of isomers) | 320 nM
